We go through one substance from paper PMC9558423 (Molecular nutrition & food research, 2020).

Where two headings read alike, the source gives them in different places.

For the data set the following is noted: for Qualitative Tmax (urine collection with greatest excretion): 12h urine collections, np = no peak; for Cmax (nmol excreted): urine, mean ± SD.

On to delphinidin glucuronide, for which the “Qualitative Tmax (urine collection with greatest excretion)” value runs as follows: (High dose (1000 mg/kg bw)) 0 to 12 h; (Low dose (75 mg/kg bw)) “np”; (Medium dose (350 mg/kg bw)) 0 to 12 h. The “Cmax (nmol excreted)” value is 20.8 ± 5.1 nmol excreted (High dose (1000 mg/kg bw)), “np” (Low dose (75 mg/kg bw)) and 6.35 ± 1.60 nmol excreted (Medium dose (350 mg/kg bw)).
